The values below are quoted from earlier work in patent US11235084B2, “Embolic microspheres” (Varian Medical Systems, Inc., priority 2017, dated 2022).

“N-(2-hydroxyethyl)piperazine-N′-(4-butanesulfonic acid)”: the reported pKa values at 25° C. is 8.3.

For “piperazine-N,N′-bis(2-hydroxypropanesulfonic acid)”, the reported pKa values at 25° C. was 7.8.
